Test results: patent US20150366827A1, “COMPOSITIONS AND METHODS FOR MIXING AND APPLYING MIXED OXIDANT COMPOSITIONS FOR DAIRY ANIMAL TREATMENT” (GEA Farm Technologies, Inc., priority 2009, published 2015)

Assay: Loss of mixed oxidant activity on exposure to additives (iodometric thiosulfate titration)
Type: physicochemical
Design: concentration or dose not given beside the values
Settings: antimicrobials, 2 days exposure to mixed oxidant
Method: The activity of a mixed oxidant system is preferably measured with an iodometric titration by the addition of excess iodide and acid and titration of the resulting iodine (in the form of triiodide) with sodium thiosulfate. This method can measure the various oxidants in the mixture, comprising chlorine.
A teat dip composition is defined as stable when the activity of the mixed oxidant decreases by less than about 25% over a 12 hour to 72 hour period. The Tables 1 through 3, and 5 below show the stability of mixed oxidants when exposed to various additives for 12 hours to 96 hours. […] In each Table 1 through 5, the beginning mixed oxidant titrated at between 3800 ppm to 4100 ppm measured as available chlorine.

alkyl dimethyl amine oxide
% Loss of Activity at (23° C.): 4%
